The structures appear in SMILES notation. The list shows a part of the results, in another mix than the full data. Activity calls are given as the source filed them. Rule as the data show it: active = inhibition above about 19%; inactive = the rest.

The assay deals with T-cell receptor (TCR). Kind of assay: inhibitors of human TCR-CD3 interaction, primary screen, biochemical, fluorescence, TAMRA-labeled TCR probe (AID 651800).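 Also: recombinant mutant TCR 2C K166C tagged with TAMRA read by polarization; 0% = receptor in buffer alone and 100% = receptor with positive control.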 The conditions noted are these: at 9.4 µM, hits give high values.
What is called inhibition is the change of the read-out against control, counted positive when it falls. On to `O=P(Nc1nc2ccccc2s1)(c1ccccc1)c1ccccc1`, for which the inhibition was inactive: 6.71%.
As to `O=P(Nc1ccccn1)(c1ccc(Br)cc1)c1ccc(Br)cc1`, the inhibition was inactive: -0.49%.
On to `CN(C)C1(CNC(=O)c2ccc(Cl)c(S(N)(=O)=O)c2)CCCCC1`, for which the inhibition was inactive: -1.82%.
In the case of `COc1ccc(N)c([N+](=O)[O-])c1[N+](=O)[O-]` it was inactive: 0.06%; in that of `Nc1ccc(CCCCOc2ccccc2)cc1`, inactive: 11.8%.
In the case of `O=C(OC1CN2CCC1CC2)c1cccc(Cl)c1` (stereo not drawn) it was inactive: 0.03%; in that of `C(Cc1nn[nH]n1)Cc1nn[nH]n1`, inactive: 9.24%.
In the case of `Nc1ccc([As](=O)(O)c2ccc([N+](=O)[O-])cc2)cc1` it was inactive: 5.57%.
For `C/C(N)=N\P(=O)(OCc1ccccc1)OCc1ccccc1`, the inhibition is inactive: 1.39%.
Consider `O=[As](O)(c1ccccc1)c1ccc(O)cc1`, for which the inhibition was inactive: -0.44%.
In the case of `O=[N+]([O-])c1ncn(CCn2cnc([N+](=O)[O-])n2)n1` it was inactive: -0.55%.
In the case of `CC(=O)NC(SC(=S)N(C)C)C(Cl)(Cl)Cl` (stereo not drawn) it was inactive: 2.58%; in that of `O=P1(N(CCCl)CCCl)OCCC2CCCCN21` (stereo not drawn), inactive: -10.4%; in that of `Cc1ccc(NP(=O)(Oc2cccc(C)c2)Oc2cccc(C)c2)nc1`, inactive: -3.28%.
In the case of `c1ccc(-c2nn[nH]n2)c(-c2nn[nH]n2)c1` it was inactive: -2.5%; in that of `CCNC(=S)/N=C(\N)N[N+](=O)[O-]`, inactive: -4.48%; in that of `O=C(NC1CCS(=O)(=O)C1)NP(=S)(Oc1ccccc1)Oc1ccccc1` (stereo not drawn), inactive: -4.23%.
Consider `O=c1c2cc([N+](=O)[O-])ccc2[nH]c2c([N+](=O)[O-])cc([N+](=O)[O-])cc12`, for which the inhibition was inactive: -15.3%.
As for `CN(C)C(=O)Oc1noc2ccccc12`, the inhibition is inactive: -9.2%.
In the case of `CC(NC(=O)COC(=O)C(O)(c1ccccc1)c1ccccc1)c1ccccc1` (stereo not drawn) it was inactive: -6.3%; in that of `Cc1ccccc1OP(=O)(Nc1ccccn1)Oc1ccccc1C`, inactive: -6.48%.
In the case of `CCC(=O)N1C2C3N(C(=O)CC)C1C1N(C(=O)CC)C(C(N1C(=O)CC)N3C(=O)CC)N2C(=O)CC` it was inactive: 3.51%; in that of `O=C(OC1CN2CCC1CC2)c1ccccc1` (stereo not drawn), inactive: -4.55%; in that of `Cc1ccc(OP(=O)(Nc2ccccn2)Oc2ccc(C)cc2)cc1`, inactive: 4.34%.
Regarding `CC(=O)NC(SC(=S)N(CC(C)C)CC(C)C)C(Cl)(Cl)Cl` (stereo not drawn), the inhibition was inactive: -9.2%.
In the case of `COC(=O)c1cc2c(s1)N=C(c1ccccc1)N(C)P2(=O)N1CCOCC1` (stereo not drawn) it was inactive: 5.09%; in that of `CC(C)(C)C(=O)NC(Sc1ccccc1)C(Cl)(Cl)Cl` (stereo not drawn), inactive: 4.49%; in that of `CCc1cc(O)c([N+](=O)[O-])c(C)c1[N+](=O)[O-]`, inactive: 2%.
In the case of `CCOc1ccc(C2=NCC(CBr)S2)cc1` (stereo not drawn) it was inactive: -2.21%; in that of `O=P1(Nc2nc3ccc(Cl)cc3s2)COc2ccccc2O1` (stereo not drawn), inactive: -3.02%; in that of `CC(=O)Nc1ccc(Oc2c([N+](=O)[O-])cc([N+](=O)[O-])cc2[N+](=O)[O-])cc1`, inactive: 11.5%.
In the case of `CC(=O)Nc1ccc([As](=O)(O)O)c(O)c1` it was inactive: 4.48%.
In the case of `C[C@H]1OP(=O)(Oc2ccccc2)C[C@@H]2O[C@@H]21` (stereo partly drawn), the inhibition was inactive: -4.63%.
In the case of `C[C@@H]1C=CCP(=O)(Oc2ccccc2)O1` (stereo partly drawn) it was inactive: -2.85%; in that of `Cc1ccccc1CN(C)C(=O)COC(=O)C(O)(c1ccccc1)c1ccccc1`, inactive: -2.12%; in that of `COC(=O)C1(C)COP(=O)(NCc2ccccc2)OC1` (stereo not drawn), inactive: 1.19%.
In the case of `CC(=O)c1ccc(N2CC2c2ccncc2)cc1` (stereo not drawn) it was inactive: -0.16%.
In the case of `N#C/C(=C\c1ccc(N(CCBr)CCBr)cc1)C(N)=O` it was inactive: -3.05%; in that of `CN1CCCC(OC(=O)C(c2ccccc2)c2ccccc2)C1` (stereo not drawn), inactive: 2.35%.
For `Clc1ccc(Cl)c(NC2=NCC(CBr)S2)c1` (stereo not drawn), the inhibition was inactive: -0.63%.
In the case of `Cc1ccc(OP(=O)(Nc2nccs2)Oc2ccc(C)cc2)cc1` it was inactive: 2.25%.
In the case of `COc1ccccc1OP(=O)(Nc1ccc(C)cn1)Oc1ccccc1OC` it was inactive: -6.04%.
In the case of `Cc1ccc(N/C(=N/P(=O)(N2CCOCC2)N2CCOCC2)N2CCOCC2)cc1` it was inactive: 6.36%; in that of `CN(C(=O)Cc1ccc(Cl)c(Cl)c1)[C@H]1CCCC[C@H]1N1CCCC1`, inactive: -4.01%.
Consider `NC(=O)c1cc([N+](=O)[O-])cc([N+](=O)[O-])c1N`, for which the inhibition is inactive: 4.92%.
In the case of `O=C(NC(Sc1ccncn1)C(Cl)(Cl)Cl)c1ccccc1` (stereo not drawn) it was inactive: -1.18%; in that of `Oc1ccccc1CNc1ccccn1`, inactive: -2.21%; in that of `Nc1cc(N)c2nonc2c1[N+](=O)[O-]`, inactive: 8.94%.
In the case of `CC(C)CC(=O)NC(Sc1ccc(Cl)cc1)C(Cl)(Cl)Cl` (stereo not drawn) it was inactive: -0.06%.
In the case of `CCn1c(=O)n(C2CCN(CC3CCCCCCC3)C[C@H]2CO)c2ccccc21` (stereo partly drawn) it was inactive: -1.3%.
As for `Cc1ccc(NP(=O)(Oc2ccccc2F)Oc2ccccc2F)nc1`, the inhibition was inactive: 4.15%.
In the case of `CN(C(=O)Cc1ccc(Cl)c(Cl)c1)[C@H]1CCCC[C@@H]1N1CCCC1` it was inactive: -4.3%.
In the case of `Cc1cc(SC(NC(=O)c2ccc(F)cc2)C(Cl)(Cl)Cl)ncn1` (stereo not drawn) it was inactive: 2.52%; in that of `CCOP(=O)(Nc1ccccc1)OCC`, inactive: 0.33%; in that of `O=P(Nc1nc2ccc(Cl)cc2s1)(c1ccccc1)c1ccccc1`, inactive: 6.24%.
In the case of `CN(C)P(=O)(N(C)C)n1c(Nc2ccccc2)nnc1-c1ccccc1` it was inactive: 3.1%.
On to `CCCC1OP(N)(=O)OCC1CC` (stereo not drawn), for which the inhibition is inactive: -1.44%.
Turning to `CC(=O)Nc1ccc([As](=O)(O)O)cc1`, the inhibition was inactive: -5.38%.
In the case of `O=C(O)c1ccccc1[As](=O)(O)O` it was inactive: 1.72%; in that of `Nc1cccc2ccc([As](=O)(O)O)cc12`, inactive: 13.7%; in that of `CCN(N=Nc1nonc1N)c1nonc1N`, inactive: -5.31%.
In the case of `CN(C(=O)Cc1ccccc1)C1CC[C@@]2(CCCO2)C[C@@H]1N1CCCC1` (stereo partly drawn) it was inactive: 0.34%; in that of `O=C(Nc1cc([As](=O)(O)O)ccc1O)c1ccccc1`, inactive: 1.5%; in that of `O=P1(N(CCCl)CCCl)OCCCS1` (stereo not drawn), inactive: -0.12%.
On to `O=C(O)CNc1ccc([As](=O)(O)O)cc1`, for which the inhibition is inactive: -6.86%.
On to `COC(=O)C1(C)COP(=O)(Nc2ccccc2)OC1` (stereo not drawn), for which the inhibition was inactive: -7.23%.
In the case of `O=[N+]([O-])c1cccc(NC2=NCC(CBr)S2)c1` (stereo not drawn) it was inactive: -9.68%; in that of `O=[N+]([O-])c1ncn(CCn2ncnc2[N+](=O)[O-])n1`, inactive: -10.6%.
In the case of `CC(C)(C)C(=O)NC(Sc1ccncn1)C(Cl)(Cl)Cl` (stereo not drawn) it was inactive: 2.57%.
In the case of `CCc1nc2c(n1)c1c(non1O)c1c2no[n+]1[O-]` it was inactive: -1.82%; in that of `O=[N+]([O-])c1cc([N+](=O)[O-])c(CCNc2ccccc2)c([N+](=O)[O-])c1`, inactive: -7.08%; in that of `Cc1ccc(NP(=O)(Oc2ccccc2)Oc2ccccc2)nc1`, inactive: 2.49%.
For `O=[N+]([O-])c1cccc2n[nH]nc12`, the inhibition is inactive: -2.58%.
In the case of `CC(=O)N1C2C3N(C(C)=O)C1C1N(C(C)=O)C(C(N1C(C)=O)N3C(C)=O)N2C(C)=O` it was inactive: -3.65%; in that of `COc1ccc(C2=NCC(CBr)S2)cc1` (stereo not drawn), inactive: 1.6%.
As for `CC1CCN(C(=O)Oc2c(Cl)cc(Cl)c3cccnc23)CC1`, the inhibition was inactive: 3.58%.
In the case of `c1cc(-c2nn[nH]n2)ccc1-c1nn[nH]n1`, the inhibition is inactive: -1.01%.
In the case of `CN(C)C(=O)OCCc1n(C)cc[n+]1C` it was inactive: 2.82%; in that of `CC(C)c1nc(Nc2ccccc2)n(P(=O)(N(C)C)N(C)C)n1`, inactive: 2.06%; in that of `CC(C)=N/N=C(\N)N[N+](=O)[O-]`, inactive: 2.86%.
Consider `CCN(/C(=N/P(=O)(N1CCOCC1)N1CCOCC1)N1CCOCC1)c1ccc(OC)cc1`, for which the inhibition is inactive: 1.76%.
In the case of `C[N+]1=C2C=CC=CC=C2SC12C([N+](=O)[O-])=CC([N+](=O)[O-])=C[C-]2[N+](=O)[O-]` (stereo not drawn) it was inactive: 8.54%; in that of `Nc1ccc([As](=O)(O)c2ccc(N)cc2)cc1`, inactive: -13.1%.

Source of the values: PubChem BioAssay AID651800 (The Scripps Research Institute Molecular Screening Center, 2012).
